{"sequences": {"note": "Sequences of proteins named here, by UniProt entry; tags and fusion partners are left off. Residues count along the entry.", "UniProt P53634, 395-463 limits assumed": "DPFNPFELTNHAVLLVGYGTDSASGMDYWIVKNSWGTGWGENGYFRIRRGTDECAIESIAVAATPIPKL", "UniProt P53634, 25-134 limits assumed": "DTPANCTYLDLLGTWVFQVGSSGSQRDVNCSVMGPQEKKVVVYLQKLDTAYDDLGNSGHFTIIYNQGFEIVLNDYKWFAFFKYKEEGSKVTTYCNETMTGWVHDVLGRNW", "UniProt P53634, 231-394 limits assumed": "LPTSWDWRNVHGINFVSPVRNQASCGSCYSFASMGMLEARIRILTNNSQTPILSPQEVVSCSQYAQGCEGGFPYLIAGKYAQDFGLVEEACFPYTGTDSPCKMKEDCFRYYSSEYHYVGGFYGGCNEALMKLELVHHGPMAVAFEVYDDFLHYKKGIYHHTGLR"}, "source": "ChEMBL document CHEMBL3856275", "about": "“Discovery of Second Generation Reversible Covalent DPP1 Inhibitors Leading to an Oxazepane Amidoacetonitrile Based Clinical Candidate (AZD7986)” (J Med Chem, 2016)", "target": "Dipeptidyl peptidase 1 (Homo sapiens, UniProt P53634)", "assay": "Inhibition of DPP1 in human U937 cells using Gly-Phe-AFC as substrate preincubated for 60 mins followed by substrate addition by fluorescence assay", "type": "cell-based, U-937"}
{"compound": "N#Cc1ccc(-c2ccc(C[C@@H](C#N)NC(=O)C3(N)CCOCC3)cc2)cc1", "values": [{"measurement": "IC50", "result": 7.94, "unit": "nM"}]}
